ClpP mod: qHTS Assay for Activators of ClpP; ATP-dependent Clp protease proteolytic subunit (Bacillus subtilis (strain 168)), P80244; purified B. subtilis ClpP, FRET peptide cleavage, 20 min; Potency, µM (doses to about 57.5 µM); 340,000 tested, 1.9% active; AID 651965, 2013; active means well fitted falling curve with a large enough effect; inconclusive means small, poorly fitted or top-dose-only effect; inactive means no such curve, though single readings can be large or run the other way; further: the source files actives as falling curves though it sought activators and does not explain the sign; nearly all actives have a fitted effect of over 65% in size
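Purified B. subtilis ClpP, 10 microg/mL final in Tris/HCl pH8 with KCl, BSA, glycerol and Tween-20, cleaved an Abz/nitrotyrosine-quenched decapeptide. Fluorescence (ex 320, em 430) was read at 0 and 20 min at room temperature. Delta was normalized to 5.8 microM ADEP and DMSO/no-enzyme controls.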
p53 reactivation: re-activators of mutant p53; H1299 p53-A138V BP100-luciferase reporter, luminescence, 24 h; 320,000 tested, 0.063% active; Potency, µM (series often up to 92.2 µM), hits mostly activators; further: nearly all actives have a fitted effect of over 45% in size
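H1299 (p53-null), stable ts p53-A138V + BP100-Luc; 1000 cells/well, Opti-MEM/10% FBS; cpd 4 pt, 1:5; 24 h, 37 deg C, 5% CO2; detection reagent 10 min RT; luminescence.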
Nrf2 activator: activators of Nrf2 (ARE) signaling. AREc32 ARE-luciferase reporter (MCF7-derived line), luminescence, 24 h. 410,000 tested, 0.31% active. AID 624171. Potency, µM (titrated, usually from 46.1 µM), hits mostly activators; further: nearly all actives have a fitted effect of over 65% in size
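Reporter line AREc32 (ARE-Fluc), seeded overnight in OPTI-MEM with 5% FBS; compound pin-transferred, 24 hr at 37 deg C, 5% CO2; luminescent read-out.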
miR-21 reporter: raises the signal of a miR-21 reporter | Potency, µM (doses to about 38.3 µM) | HeLa miR-21 FLuc reporter, luciferase, 48 h | AID 2288 | 340,000 tested, under 10 active; active = well fitted rising curve with a large enough effect; inconclusive = small, poorly fitted or top-dose-only effect; inactive = no such curve, though single readings can be large or run the other way;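 also: miR-21 action dims this reporter so a rising signal means less miR-21 action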
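Using DMEM plus 10% FBS, HeLa miR-21-FLuc cells are incubated with test compounds (final up to about 40uM) for 48 hours; firefly luciferase signal is then imaged following reagent-mediated lysis.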
A549 tox: kills or reduces viability of A549 cells in Nrf2 counter-screen | A549 ARE-Fluc cells, CellTiter-Fluor viability, 18-24 h | Potency, µM (series often up to 46 µM), most hits filed as inhibitors | 390,000 tested, 0.16% active
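A549 ARE-Fluc cells in 5% FBS OPTI-MEM, 5000 cells/well, rested 2 h then exposed to compounds in concentration-response for 18-24 h at 37 °C. Viability by CellTiter-Fluor fluorescence (Ex 405/Em 525) after 30 min; luciferase luminescence (BugLite, 15 min, RT) read afterwards.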
Nrf2 block: Nrf2 pathway inhibition. A549 ARE-Fluc reporter, luciferase luminescence, 18-24 h. Potency, µM (highest dose often 46 µM), usual class: inhibitors. 360,000 tested, 2.1% active. AID 504444; further: nearly all actives have a fitted effect of over 60% in size
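Concentration-response testing used A549 ARE_Fluc cells at 5000 cells/well. Following an 18-24 h compound incubation, viability was read by fluorescence (Ex 405/Em 525) and luciferase output by luminescence.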
Hits are given with their value; - = inactive; ? = inconclusive; . = not tested or not shown; ! = a repeat was not active; [ ] = another dose, or the depositor's remark. Shown are actives, neighbours in structure and some others; about 3.7% of the full set was active somewhere. Unless noted, the call rests on the fitted dose curve; in most records, active means well fitted curve in the direction sought with a large enough effect; inconclusive means small, poorly fitted or top-dose-only effect, or another doubt; inactive means no such curve, though single readings can be large; an effect the other way counts as inactive or inconclusive.

SMILES	ClpP mod	p53 reactivation	Nrf2 activator	miR-21 reporter	A549 tox	Nrf2 block
COc1ccccc1/C=C/c1ccc2cccc(O)c2n1	-	?	-	-	-	-
CCOc1cccc(/C=C/c2ccc3cccc(O)c3n2)c1O	.	10µM	?	-	-	-
CCOc1cc(/C=C/c2cc(C(F)(F)F)[nH]c(=O)n2)ccc1O	.	-	-[9.22 µM]	-	?	21µM
CCOc1cccc(/C=C/c2ccc3cccc(O)c3n2)c1OC	.	13µM	?	-	-	-
COc1ccc(Cl)cc1/C=C/c1ccc2cccc(O)c2n1	-	?	?	-	-	-
CCOc1cc(/C=C/c2ccc3cccc([N+](=O)[O-])c3n2)ccc1O	-	-	?	-	?	23µM
O=C(CCc1nnc2n(Cc3ccccc3Cl)c(=O)c3ccccc3n12)Nc1ccccc1	-	.	-	-	-	-
COc1ccccc1C1/C(=C(/O)c2ccc(C)cc2)C(=O)C(=O)N1CC(C)O (stereo not given)	28µM	-	-	-	-	-
CC(C)(C)c1nnc(NC(=O)CCS(=O)(=O)c2ccccc2)s1	.	-	16µM	-	-	-
O=C(CCS(=O)(=O)c1ccccc1)Nc1nnc(C(F)(F)F)s1	.	-	?	?	?	-
N#Cc1ccsc1NC(=O)COC(=O)CCS(=O)(=O)c1ccccc1	.	?	-	.	-	-
N#Cc1ccsc1NC(=O)CCS(=O)(=O)c1ccccc1	-	-	14µM	-	-	-
CC(=O)c1sc(NC(=O)CCS(=O)(=O)c2ccc(C)cc2)nc1C	-	?	22µM	.	?	-
CCc1ccc(NC(=O)Cn2c(=O)n(CCCC(=O)NCc3ccccc3OC)c(=O)c3ccccc32)cc1	-	.	-	-	-	-
Cc1ccc(S(=O)(=O)NCC2CCCO2)cc1 (stereo not given)	-	.	-	-	-	-
O=S(=O)(NCC1CCCO1)c1ccc(-c2ccc(S(=O)(=O)NCC3CCCO3)cc2)cc1 (stereo not given)	.	-	-	-	-	1.3µM
COc1ccc(CNC(=O)c2cnc3sc(N4CCC(C)CC4)nn3c2=O)c(OC)c1	-	.	-	-	-	?
COc1cc2cc(C(c3nnnn3C(C)(C)C)N3CCC(C)CC3)c(=O)[nH]c2cc1OC (stereo not given)	13µM	-	-	-	-	-
COCCn1nnnc1C(c1cc2cc(C)ccc2[nH]c1=O)N1CCCCCC1 (stereo not given)	28µM	-	-	-	-[1.84 µM]	-
CCCN1CCN(C(c2cc3cc4c(cc3[nH]c2=O)OCO4)c2nnnn2C(C)(C)C)CC1 (stereo not given)	?	?	-	-	-	-
COCCn1nnnc1C(c1cc2c(C)cc(C)cc2[nH]c1=O)N1CCCCCC1 (stereo not given)	-	-	-	-	-	-
CCC(C)(C)n1nnnc1C(c1cc2cc3c(cc2[nH]c1=O)OCO3)N1CCCCC1 (stereo not given)	14µM	-	-	-	-	-
O=c1[nH]c2cc3c(cc2cc1C(c1nnnn1Cc1ccccc1)N1CCN2CCCC2C1)OCCO3 (stereo not given)	25µM	-	-	-	-	-
CC(=O)c1cccc(NC(=O)CCn2nc(C)c(S(=O)(=O)N3CCCCC3)c2C)c1	-	.	-	?	-	.
CC1(C)CC(=O)C=C(Nc2ccc(F)cc2)C1	-	-	-	-	-	-
SMILES	ClpP mod	p53 reactivation	Nrf2 activator	miR-21 reporter	A549 tox	Nrf2 block
CC1(C)CC(=O)C=C(Nc2ccc(OCC(F)(F)C(F)F)cc2)C1	18µM	?	-	-	-	.
C1NNCC12CNNC2	-	.	.	.	.	.
Cc1ccc(C)c(N2CCN(c3nc4ccccc4c(=O)n3-c3ccc(Cl)cc3)CC2)c1	-	.	-	-	-	-
Cc1cccc(N2CCN(c3nc4ccccc4c(=O)n3-c3ccc(Cl)cc3)CC2)c1C	18µM	.	-	-	-	-
Cc1csc2nc3ccccc3c(=O)n12	14µM	?	-	-	-	-
Cc1nc2scc(C)n2c(=O)c1S(=O)(=O)NCc1ccccc1	-	?	-	-	-	-
O=C(Nc1ccc(-c2nc3ccccc3o2)cc1)c1cccnc1	-	-	-	-	-	-
O=C(Nc1ccc(-c2nc3ccccc3o2)cc1)c1ccc(N2C(=O)C3C4C=CC(C4)C3C2=O)cc1 (stereo not given)	3.2µM	-	-	-	-	?
CC(=O)Nc1ccc2oc(-c3cc(F)c(F)cc3Cl)nc2c1	18µM	-	-	-	-	-
O=C(Nc1ccc(-c2nc3ccccc3o2)cc1)c1ccc2c(c1)OCO2	32µM	.	-	-	?	?
O=C(Nc1ccc2oc(-c3ccccc3F)nc2c1)c1ccc2c(c1)OCCO2	28µM	-	-	-	?	13µM
CCOC(=O)c1ccc(NC(=O)c2c(NCc3ccc(OC)c(OC)c3OC)sc3c2CCC(C)C3)cc1 (stereo not given)	-	.	-	-	-	.
O=C(Nc1ccc2oc(-c3cccc4ccccc34)nc2c1)c1ncn[nH]1	32µM	-	-	-	-	?
C=CCc1cccc(C=Nc2cc(Br)ccc2O)c1O	-	-	6.3µM	-	-	?
Cn1nnnc1Sc1ncnc2scc(-c3cccc(Cl)c3)c12	.	.	.	.	-	23µM
Cn1nnnc1Sc1ncnc2scc(-c3ccc(C#N)cc3)c12	.	-	-	.	?	16µM
Cn1nnnc1Sc1ncnc2scc(-c3cccc(F)c3)c12	.	-	?	.	?	?
COc1cccc(-c2csc3ncnc(Sc4nnnn4C)c23)c1	.	-	?	.	?	26µM!
Cc1ccc(S(=O)(=O)C(CNC(=O)COc2ccccc2)c2cccs2)cc1 (stereo not given)	-	.	-	-	-	.
C=CC[C@@H](CC(=O)N(CCO)Cc1ccccc1)C(=O)N[C@@H](COC(=O)[C@H](CC=C)CC(=O)OC(C)(C)C)Cc1c[nH]c2ccccc12	-	-	-	.	?	23µM
C=CC[C@H](CC(=O)N(CCO)Cc1ccccc1)C(=O)N[C@@H](COC(=O)[C@@H](CC=C)CC(=O)OC(C)(C)C)Cc1c[nH]c2ccccc12	-	-	-	.	?	21µM
C=CC[C@H](CC(=O)N(CCO)Cc1ccccc1)C(=O)N[C@H](COC(=O)[C@H](CC=C)CC(=O)OC(C)(C)C)Cc1c[nH]c2ccccc12	-	?	-	.	?	?
NC(=O)c1ccc(NC(=O)COC(=O)/C=C/c2cn(-c3ccccc3)nc2-c2cccnc2)cc1	28µM	-	-	-	-	-
Cc1cccc(-n2ncc3c2CCCC3NC(=O)CCc2cccnc2)c1C (stereo not given)	-	-	-	-	-	7.3µM

Assay outcomes as filed in PubChem.
